IC50 data for one substance are collected here from patent US8481532B2, “PDE-10 inhibitors” (EnVivo Pharmaceuticals, Inc., priority 2008, dated 2013).

By UniProt entry, the sequences of proteins in these tests, tags left out. Residues count along the entry.
UniProt Q9Y233, 1-779 isoform Q9Y233-1: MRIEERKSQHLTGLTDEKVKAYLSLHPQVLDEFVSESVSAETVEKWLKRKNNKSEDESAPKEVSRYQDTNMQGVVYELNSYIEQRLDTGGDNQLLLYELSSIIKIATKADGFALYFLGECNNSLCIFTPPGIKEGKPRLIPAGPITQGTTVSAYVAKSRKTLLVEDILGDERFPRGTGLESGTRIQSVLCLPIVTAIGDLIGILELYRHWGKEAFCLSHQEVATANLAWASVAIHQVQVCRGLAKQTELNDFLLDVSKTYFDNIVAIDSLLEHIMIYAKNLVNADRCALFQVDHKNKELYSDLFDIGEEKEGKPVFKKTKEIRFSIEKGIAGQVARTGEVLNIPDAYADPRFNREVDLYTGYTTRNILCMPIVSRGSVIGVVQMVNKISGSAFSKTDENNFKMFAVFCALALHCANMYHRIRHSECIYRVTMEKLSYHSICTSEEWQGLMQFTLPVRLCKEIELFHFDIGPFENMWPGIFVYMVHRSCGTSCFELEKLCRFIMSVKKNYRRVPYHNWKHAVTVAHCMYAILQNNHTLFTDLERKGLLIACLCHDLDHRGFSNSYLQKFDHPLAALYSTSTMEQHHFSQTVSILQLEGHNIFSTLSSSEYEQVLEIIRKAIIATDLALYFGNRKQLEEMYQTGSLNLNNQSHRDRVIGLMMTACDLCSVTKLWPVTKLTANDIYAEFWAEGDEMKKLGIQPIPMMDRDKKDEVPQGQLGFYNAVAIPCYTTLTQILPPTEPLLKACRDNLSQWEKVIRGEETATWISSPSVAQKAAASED

In this assay the target is Human PDE10A1 (Homo sapiens, UniProt Q9Y233). Briefly: hPDE10A1 Enzyme Inhibition ([3H]-cAMP scintillation assay). To be noted: Human PDE10A1, [3H]-cAMP substrate, 20 minutes at 37° C.; read-out: hPDE10A1 IC50 Band. It counts as biochemical. Here is the method: • hPDE10A1 Enzyme Activity: […] samples of serially diluted Human PDE10A1 enzyme were incubated with 50 μl of [^3H]-cAMP for 20 minutes (at 37° C.). Reactions were carried out in Greiner 96 deep well 1 ml master-block. The enzyme was diluted in 20 mM Tris HCl pH7.4 and [^3H]-cAMP was diluted in 10 mM MgCl2, 40 mM Tris.HCl pH 7.4. The reaction was terminated by denaturing the PDE enzyme (at 70° C.) after which [^3H]-5′-AMP was converted to [^3H]-adenosine by adding 25 μl snake venom nucleotidase and incubating for 10 minutes (at 37° C.). Adenosine, being neutral, was separated from charged cAMP or AMP by the addition of 200 μl Dowex resin. Samples were shaken for 20 minutes then centrifuged for 3 minutes at 2,500 r.p.m. 50 μl of supernatant was removed and added to 200 μl of MicroScint-20 in white plates (Greiner 96-well Optiplate) and shaken for 30 minutes before reading on Perkin Elmer TopCount Scintillation Counter. • hPDE10A1 Enzyme Inhibition: To check inhibition profile 11 μl of serially diluted inhibitor was added to 50 μl of [^3H]-cAMP and 50 μl of diluted Human PDE10A1 and assay was carried out as in the enzyme activity assay. Data was analysed using Prism software (GraphPad Inc).

pIC50: −log10 of the molar value.

Turning to “(E)-2-(4-cyclohexylphenyl)-N′-(isoquinolin-5-ylmethylene)cyclopropanecarbohydrazide [Example 195]”, the pIC50 was more than 6.00.
